The numbers were not newly measured in US20100076037A1, “Methods of Treating Neuropathic Pain with Agonists of PPAR-gamma” (priority 2006, published 2010), which cites them from elsewhere.

The target of the data set is T1, PPARalpha (Homo sapiens, UniProt Q07869).
T1 sequence (Q07869 1-468): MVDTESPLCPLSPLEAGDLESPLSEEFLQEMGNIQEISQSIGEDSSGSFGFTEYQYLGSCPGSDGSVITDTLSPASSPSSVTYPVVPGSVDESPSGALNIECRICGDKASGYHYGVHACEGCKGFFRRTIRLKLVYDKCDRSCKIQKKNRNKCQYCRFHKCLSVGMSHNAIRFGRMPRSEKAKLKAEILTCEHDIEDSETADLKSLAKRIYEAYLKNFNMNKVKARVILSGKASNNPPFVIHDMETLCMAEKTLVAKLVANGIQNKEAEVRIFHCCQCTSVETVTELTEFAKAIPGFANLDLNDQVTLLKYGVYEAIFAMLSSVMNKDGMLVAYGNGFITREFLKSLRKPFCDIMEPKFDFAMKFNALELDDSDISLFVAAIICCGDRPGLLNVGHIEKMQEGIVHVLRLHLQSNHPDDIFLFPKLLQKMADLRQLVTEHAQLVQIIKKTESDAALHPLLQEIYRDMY
The following applies: first value of the pair given as α/γ; read-out: EC50 for PPARalpha agonism; cited from earlier work.

For orientation: EC50 means the concentration that produces a half-maximal response. Regarding `Cc1oc(-c2ccccc2)nc1CCOc1ccc(C[C@H](Nc2ccccc2C(=O)c2ccccc2)C(=O)O)cc1` [farglitazar], the concentration giving a half-maximal response (EC50) was 2 nM.
